These are literature values, as cited in PMC8802617 (Bioorganic & medicinal chemistry, 2018).

Sequences of proteins named here, by UniProt entry; tags and fusion partners are left off.
UniProt P35372, whole entry: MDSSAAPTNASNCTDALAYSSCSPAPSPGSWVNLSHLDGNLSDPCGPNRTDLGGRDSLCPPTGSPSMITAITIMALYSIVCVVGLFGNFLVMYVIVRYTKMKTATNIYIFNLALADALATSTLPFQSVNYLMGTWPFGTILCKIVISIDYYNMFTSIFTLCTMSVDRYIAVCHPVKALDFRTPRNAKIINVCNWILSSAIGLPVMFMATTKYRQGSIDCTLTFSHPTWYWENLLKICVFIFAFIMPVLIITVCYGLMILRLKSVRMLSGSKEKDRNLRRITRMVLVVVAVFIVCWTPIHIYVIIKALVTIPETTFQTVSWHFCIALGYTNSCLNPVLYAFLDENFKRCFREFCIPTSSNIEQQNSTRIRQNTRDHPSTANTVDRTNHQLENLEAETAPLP

This data set deals with MOR (Homo sapiens, UniProt P35372). The note with it: read-out: MOR Ki; literature value ref 6; cited from earlier work.

As to Biphalin, the Ki is 12 ± 2 nM.
